Measurements: US20170136093A1, “METHOD FOR PREVENTING OR TREATING OCULAR DISORDERS” (Zietchick Research Institute, LLC, priority 2014, published 2017)
Where two headings read alike, the source gives them in different places.

Columns and labels:
[1] = tested on: mouse model of oxygen induce retinopathy (OIR); type: in vivo; details: for increase of preretinal nucleus count: histology on P17, vs vehicle
Procedure: The aim of this study was to assess the effect of human chorionic gonadotropin hormone (hCG) delivered intraperitoneally on retinal neovascularization in the mouse model of oxygen induce retinopathy (OIR).
Three (3) litters of five (5) pup mice were used, one in each treatment group. The retinopathy was induced in Day-7 postnatal animals (P7) by a 5-day exposure to a 75% oxygen atmosphere (from P7 to P12). Animals were then kept in normoxia. Animals were treated by once daily intraperitoneal (ip) administrations of hCG at 1320 or 1600 IU/kg and vehicle control for 10 consecutive days (from P5 to P14). On P17, both eyeballs were removed and processed for histology.
The retinal neovascularization was evaluated by counting preretinal nuclei, i.e. the nuclei from the new vessels extending into the vitreal side of the internal limiting membrane in histological sections from both eyes.

VEGFA = experiment: Murine neural retinal VEGFA expression after intraperitoneal hCG (real-time PCR, ddCT); type: in vivo, C57BL/6 wild type mice
From the text: In the uterine vasculature, the pro-angiogenic hormone, hCG, is an important regulator of vascular endothelial growth factor (VEGF) and two VEGF receptors, (VEGFR-1, VEGFR-2) I propose that hCG also functions as an ocular VEGF regulator. The hallmark of early stage ROP, regression of immature retinal vasculature, results from hyperoxia-induced suppression of VEGF. The abnormal neovascularization characteristic of advanced stage ROP results from the retina's exuberant upregulation of VEGF to overcompensate for the earlier oxygen-induced VEGF suppression. The following experiment(s) was performed. Relative Quantity Chart (one control from each group set as calibrator) Murine Neural Retinal VEGFA expression post intraperitoneal administration of PBS (control vehicle) versus hCG (test compound) P=postnatal day (i.e. P7=postnatal day 7); (SDS v1.4 ddCT study, Applied Biosystems 7500 Fast Real-Time PCR System). 1320 IU/kg intraperitoneal human chorionic gonadotropin (hCG) or phosphate but saline were intraperitoneally administered, to C57BL/6 wild type mice.
(a) Group 1: P7 murine neonates, were injected with either hCG or PBS with retinal processing one day, later.
(b) Group 2: P25 young adult mice, received either an injection of hCG or PBS with retinal processing the next day. There were two controls and two test mice in this group.
(c) Group 3: P29/P30 young adult mice, received 2 doses of either hCG or PBS, one dose on each of two consecutive days with retinal processing the day after the second dose. There was one control (PBS) and one test mouse (hCG) in this group. There was a 400% significant (p<0.05) increase in VEGFa expression in the test mouse vs the control.

[2] = cited from earlier work

Substance: human chorionic gonadotropin [hCG]
- retinal neovascularization ([1]; doses of 1320 and 1600 IU/kg, mouse model of OIR): significantly increased
- increase of preretinal nucleus count ([1]; hCG 1320 IU/kg ip once daily P5 to P14, OIR pup mice, p=0.004): 61%
- increase of preretinal nucleus count ([1]; hCG 1600 IU/kg ip once daily P5 to P14, OIR pup mice, p=0.0085): 51%
- increase in retinal VEGFa expression compared to control (VEGFA; Group 1: P7 murine neonates, 1320 IU/kg ip single injection, retinal processing one day later, average of two test mice): 70%
- decline in retinal VEGFa expression (VEGFA; Group 2: P25 young adult mice, 1320 IU/kg ip single injection, processing next day, one of two test mice, nonsignificant): 20%
- increase in VEGFa expression over each control (VEGFA; Group 2: P25 young adult mice, 1320 IU/kg ip single injection, processing next day, the other test mouse, p<0.05): 70%
- increase in VEGFa expression vs control (VEGFA; Group 3: P29/P30 young adult mice, 2 doses of 1320 IU/kg ip on two consecutive days, processing the day after second dose, one test mouse, p<0.05): 400%
- upregulation of VEGF in the mice tested (VEGFA; summary of Groups 1-3 (FIG. 3)): significant upregulation
- half-life [2]: > 24 h

Substance: luteinizing hormone [LH]
- half-life [2]: 0.333 h
